Test results: ChEMBL document CHEMBL5614463, “Discovery of Imidazo[1,2-a]pyrazine Derivatives as Potent ENPP1 Inhibitors” (J Med Chem, 2024)

The chains behind the UniProt entries cited, without tags or fusion partners. Where a name states a change or a piece, a line headed by the entry shows the natural chain unless it says otherwise.
UniProt Q86WV6: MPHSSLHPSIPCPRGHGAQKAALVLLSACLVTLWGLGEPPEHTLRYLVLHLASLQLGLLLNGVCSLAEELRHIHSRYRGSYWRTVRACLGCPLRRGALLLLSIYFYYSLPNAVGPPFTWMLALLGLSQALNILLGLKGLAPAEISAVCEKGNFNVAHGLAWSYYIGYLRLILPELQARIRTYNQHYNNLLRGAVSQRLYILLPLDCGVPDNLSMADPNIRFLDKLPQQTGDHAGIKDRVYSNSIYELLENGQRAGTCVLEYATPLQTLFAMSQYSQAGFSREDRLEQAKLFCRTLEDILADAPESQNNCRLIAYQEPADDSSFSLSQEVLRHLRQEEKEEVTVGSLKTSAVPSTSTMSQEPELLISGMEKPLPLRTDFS
UniProt Q9UHD2: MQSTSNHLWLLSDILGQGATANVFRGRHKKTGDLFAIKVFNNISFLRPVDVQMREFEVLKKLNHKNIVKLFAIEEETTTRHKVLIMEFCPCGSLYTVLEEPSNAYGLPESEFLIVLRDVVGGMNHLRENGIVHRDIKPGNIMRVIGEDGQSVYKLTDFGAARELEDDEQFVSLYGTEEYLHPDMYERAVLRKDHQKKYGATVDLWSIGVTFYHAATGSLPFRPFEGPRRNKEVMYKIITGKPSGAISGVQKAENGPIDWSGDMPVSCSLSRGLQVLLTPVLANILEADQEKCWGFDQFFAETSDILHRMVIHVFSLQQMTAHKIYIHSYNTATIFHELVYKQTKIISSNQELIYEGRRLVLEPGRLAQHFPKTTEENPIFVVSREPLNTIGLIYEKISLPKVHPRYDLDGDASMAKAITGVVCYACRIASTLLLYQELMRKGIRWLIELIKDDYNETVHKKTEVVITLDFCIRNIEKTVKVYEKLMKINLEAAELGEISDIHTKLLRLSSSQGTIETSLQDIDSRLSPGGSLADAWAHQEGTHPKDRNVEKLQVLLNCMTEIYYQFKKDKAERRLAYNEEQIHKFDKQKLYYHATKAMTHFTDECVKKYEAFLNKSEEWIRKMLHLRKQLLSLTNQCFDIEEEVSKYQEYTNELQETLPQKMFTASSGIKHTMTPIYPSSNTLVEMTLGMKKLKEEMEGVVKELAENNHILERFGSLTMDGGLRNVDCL

Experiments:
Format in all cases: cell-based
[1] = biological target: Stimulator of interferon genes protein (Homo sapiens) (UniProt Q86WV6); assay: Activation of STING signaling pathway in human THP-1 cells assessed as increase in cGAMP-induced IFNB1 mRNA expression incubated for 12 hrs by qRT-PCR analysis; settings: filed as activator, dose 0.6-10 µM
[2] = biological target: Stimulator of interferon genes protein (Homo sapiens) (UniProt Q86WV6); assay: Activation of STING signaling pathway in human THP-1 cells assessed as increase in cGAMP-induced CXCL10 mRNA expression incubated for 12 hrs by qRT-PCR analysis; settings: filed as activator, dose 0.6-10 µM
[3] = biological target: Stimulator of interferon genes protein (Homo sapiens) (UniProt Q86WV6); assay: Activation of STING signaling pathway in human THP-1 cells assessed as increase in cGAMP-induced IL6 mRNA expression incubated for 12 hrs by qRT-PCR analysis; settings: filed as activator, dose 0.6-10 µM
[4] = biological target: Stimulator of interferon genes protein (Homo sapiens) (UniProt Q86WV6); assay: Activation of STING signaling pathway in human THP-1 cells assessed as increase in cGAMP-induced IFNB1 mRNA expression at 10 uM measured upto 36 hrs by qRT-PCR analysis; settings: filed as activator
[5] = biological target: Stimulator of interferon genes protein (Homo sapiens) (UniProt Q86WV6); assay: Activation of STING signaling pathway in human THP-1 cells assessed as increase in cGAMP-induced CXCL10 mRNA expression at 10 uM measured upto 36 hrs by qRT-PCR analysis; settings: filed as activator
[6] = biological target: Stimulator of interferon genes protein (Homo sapiens) (UniProt Q86WV6); assay: Activation of STING signaling pathway in human THP-1 cells assessed as increase in cGAMP-induced IL6 mRNA expression at 10 uM measured upto 36 hrs by qRT-PCR analysis; settings: filed as activator
[7] = biological target: Stimulator of interferon genes protein (Homo sapiens) (UniProt Q86WV6); assay: Induction of STING phosphorylation in human THP-1 cells at 2.5 to 10 uM preincubated with compound for 1 hrs followed by cGAMP addition and measured after 12 hrs by Western blot analysis; settings: filed as activator, dose 2.5-10 µM, time 13.0 hrs
[8] = biological target: Serine/threonine-protein kinase TBK1 (Homo sapiens) (UniProt Q9UHD2); assay: Induction of TBK1 phosphorylation in human THP-1 cells at 2.5 to 10 uM preincubated with compound for 1 hrs followed by cGAMP addition and measured after 12 hrs by Western blot analysis; settings: filed as activator, dose 2.5-10 µM, time 13.0 hrs
[9] = biological target: T1, Interferon regulatory factor 3 (Homo sapiens) (UniProt Q14653); assay: Induction of IRF3 phosphorylation in human THP-1 cells at 2.5 to 10 uM preincubated with compound for 1 hrs followed by cGAMP addition and measured after 12 hrs by Western blot analysis; settings: filed as activator, dose 2.5-10 µM, time 13.0 hrs
T1 sequence (whole entry): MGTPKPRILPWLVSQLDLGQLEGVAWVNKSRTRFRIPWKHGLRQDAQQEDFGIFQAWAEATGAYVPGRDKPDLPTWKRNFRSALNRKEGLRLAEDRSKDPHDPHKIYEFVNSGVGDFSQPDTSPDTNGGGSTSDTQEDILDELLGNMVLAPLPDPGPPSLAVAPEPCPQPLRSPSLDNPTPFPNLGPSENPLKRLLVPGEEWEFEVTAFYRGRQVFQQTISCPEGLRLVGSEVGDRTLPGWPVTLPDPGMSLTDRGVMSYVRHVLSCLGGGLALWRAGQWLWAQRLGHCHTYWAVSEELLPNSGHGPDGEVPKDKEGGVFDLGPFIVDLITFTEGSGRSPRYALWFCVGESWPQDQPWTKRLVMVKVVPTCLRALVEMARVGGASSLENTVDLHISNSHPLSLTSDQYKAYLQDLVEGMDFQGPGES

[10] = biological target: T2, Stimulator of interferon genes protein (Mus musculus) (UniProt Q3TBT3); assay: Activation of STING signaling pathway in mouse RAW264.7 cells assessed as increase in cGAMP-induced IFNB1 mRNA expression incubated for 12 hrs by qRT-PCR analysis; settings: filed as activator
T2 sequence (whole entry): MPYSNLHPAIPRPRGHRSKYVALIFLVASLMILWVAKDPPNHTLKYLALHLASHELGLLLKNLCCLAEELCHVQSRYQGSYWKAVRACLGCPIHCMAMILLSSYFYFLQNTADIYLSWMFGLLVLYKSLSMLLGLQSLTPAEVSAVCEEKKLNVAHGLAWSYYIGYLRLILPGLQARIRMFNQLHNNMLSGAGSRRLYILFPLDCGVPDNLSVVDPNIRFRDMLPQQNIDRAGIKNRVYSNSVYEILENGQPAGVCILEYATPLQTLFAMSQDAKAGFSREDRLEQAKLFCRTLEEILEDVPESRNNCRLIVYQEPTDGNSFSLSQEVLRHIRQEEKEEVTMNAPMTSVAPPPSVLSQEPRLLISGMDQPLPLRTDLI

[11] = biological target: T2, Stimulator of interferon genes protein (Mus musculus); assay: Activation of STING signaling pathway in mouse RAW264.7 cells assessed as increase in cGAMP-induced CXCL10 mRNA expression incubated for 12 hrs by qRT-PCR analysis; settings: filed as activator
[12] = biological target: T2, Stimulator of interferon genes protein (Mus musculus); assay: Activation of STING signaling pathway in mouse RAW264.7 cells assessed as increase in cGAMP-induced IL6 mRNA expression incubated for 12 hrs by qRT-PCR analysis; settings: filed as activator

Measured: Activity

COc1cccc(F)c1-c1nc(C(=O)Nc2cc(F)ccc2N2CCC(NS(N)(=O)=O)CC2)cn2ccnc12
active: [1] Dose-Dependent Effect | [2] Dose-Dependent Effect | [3] Dose-Dependent Effect | [4] | [5] | [6] | [7] | [8] | [9] | [10] | [11] | [12]

Activity calls are given as the source filed them.
